From ChEMBL document CHEMBL5321287, “Discovery, Synthesis, and Evaluation of Novel Dual Inhibitors of a Vascular Endothelial Growth Factor Receptor and Poly(ADP-Ribose) Polymerase for BRCA Wild-Type Breast Cancer Therapy” (J Med Chem, 2023)

Protein sequences, listed by entry. Tags and fused reporters are not part of them.
UniProt P17948, whole entry: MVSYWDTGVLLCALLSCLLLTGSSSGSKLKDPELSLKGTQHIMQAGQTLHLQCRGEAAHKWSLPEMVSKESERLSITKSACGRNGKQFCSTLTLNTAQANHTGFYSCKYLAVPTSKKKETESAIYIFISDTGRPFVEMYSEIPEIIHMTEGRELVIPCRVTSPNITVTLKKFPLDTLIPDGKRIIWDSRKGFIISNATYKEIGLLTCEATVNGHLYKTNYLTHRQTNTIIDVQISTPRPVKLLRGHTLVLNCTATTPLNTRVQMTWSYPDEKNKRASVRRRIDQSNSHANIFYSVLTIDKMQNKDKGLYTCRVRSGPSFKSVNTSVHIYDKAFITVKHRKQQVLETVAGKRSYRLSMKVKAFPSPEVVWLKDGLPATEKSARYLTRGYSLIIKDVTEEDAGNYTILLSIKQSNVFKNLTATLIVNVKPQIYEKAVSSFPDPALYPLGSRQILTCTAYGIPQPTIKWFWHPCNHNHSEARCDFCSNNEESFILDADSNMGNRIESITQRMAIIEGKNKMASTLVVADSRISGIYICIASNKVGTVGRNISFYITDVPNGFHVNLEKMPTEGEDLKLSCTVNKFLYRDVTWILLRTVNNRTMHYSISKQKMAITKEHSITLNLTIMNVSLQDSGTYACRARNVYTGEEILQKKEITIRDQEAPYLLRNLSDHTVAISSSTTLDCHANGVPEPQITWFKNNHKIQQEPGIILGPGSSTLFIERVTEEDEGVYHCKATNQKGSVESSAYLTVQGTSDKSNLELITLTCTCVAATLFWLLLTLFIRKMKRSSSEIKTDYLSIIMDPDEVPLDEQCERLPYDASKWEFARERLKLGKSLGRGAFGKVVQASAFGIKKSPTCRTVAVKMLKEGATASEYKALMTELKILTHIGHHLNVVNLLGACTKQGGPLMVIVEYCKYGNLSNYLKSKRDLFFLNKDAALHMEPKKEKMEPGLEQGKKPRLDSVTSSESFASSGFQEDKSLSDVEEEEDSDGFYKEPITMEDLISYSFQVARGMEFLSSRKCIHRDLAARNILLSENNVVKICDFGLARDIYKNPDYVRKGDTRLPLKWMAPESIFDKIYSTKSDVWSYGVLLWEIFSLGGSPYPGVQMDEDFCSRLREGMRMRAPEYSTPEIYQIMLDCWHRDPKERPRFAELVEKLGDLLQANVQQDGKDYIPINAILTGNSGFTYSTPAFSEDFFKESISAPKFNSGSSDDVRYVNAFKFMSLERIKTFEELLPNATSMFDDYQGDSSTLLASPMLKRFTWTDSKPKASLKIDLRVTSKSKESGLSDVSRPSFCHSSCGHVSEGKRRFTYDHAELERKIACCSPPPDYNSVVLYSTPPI
UniProt P35916, whole entry: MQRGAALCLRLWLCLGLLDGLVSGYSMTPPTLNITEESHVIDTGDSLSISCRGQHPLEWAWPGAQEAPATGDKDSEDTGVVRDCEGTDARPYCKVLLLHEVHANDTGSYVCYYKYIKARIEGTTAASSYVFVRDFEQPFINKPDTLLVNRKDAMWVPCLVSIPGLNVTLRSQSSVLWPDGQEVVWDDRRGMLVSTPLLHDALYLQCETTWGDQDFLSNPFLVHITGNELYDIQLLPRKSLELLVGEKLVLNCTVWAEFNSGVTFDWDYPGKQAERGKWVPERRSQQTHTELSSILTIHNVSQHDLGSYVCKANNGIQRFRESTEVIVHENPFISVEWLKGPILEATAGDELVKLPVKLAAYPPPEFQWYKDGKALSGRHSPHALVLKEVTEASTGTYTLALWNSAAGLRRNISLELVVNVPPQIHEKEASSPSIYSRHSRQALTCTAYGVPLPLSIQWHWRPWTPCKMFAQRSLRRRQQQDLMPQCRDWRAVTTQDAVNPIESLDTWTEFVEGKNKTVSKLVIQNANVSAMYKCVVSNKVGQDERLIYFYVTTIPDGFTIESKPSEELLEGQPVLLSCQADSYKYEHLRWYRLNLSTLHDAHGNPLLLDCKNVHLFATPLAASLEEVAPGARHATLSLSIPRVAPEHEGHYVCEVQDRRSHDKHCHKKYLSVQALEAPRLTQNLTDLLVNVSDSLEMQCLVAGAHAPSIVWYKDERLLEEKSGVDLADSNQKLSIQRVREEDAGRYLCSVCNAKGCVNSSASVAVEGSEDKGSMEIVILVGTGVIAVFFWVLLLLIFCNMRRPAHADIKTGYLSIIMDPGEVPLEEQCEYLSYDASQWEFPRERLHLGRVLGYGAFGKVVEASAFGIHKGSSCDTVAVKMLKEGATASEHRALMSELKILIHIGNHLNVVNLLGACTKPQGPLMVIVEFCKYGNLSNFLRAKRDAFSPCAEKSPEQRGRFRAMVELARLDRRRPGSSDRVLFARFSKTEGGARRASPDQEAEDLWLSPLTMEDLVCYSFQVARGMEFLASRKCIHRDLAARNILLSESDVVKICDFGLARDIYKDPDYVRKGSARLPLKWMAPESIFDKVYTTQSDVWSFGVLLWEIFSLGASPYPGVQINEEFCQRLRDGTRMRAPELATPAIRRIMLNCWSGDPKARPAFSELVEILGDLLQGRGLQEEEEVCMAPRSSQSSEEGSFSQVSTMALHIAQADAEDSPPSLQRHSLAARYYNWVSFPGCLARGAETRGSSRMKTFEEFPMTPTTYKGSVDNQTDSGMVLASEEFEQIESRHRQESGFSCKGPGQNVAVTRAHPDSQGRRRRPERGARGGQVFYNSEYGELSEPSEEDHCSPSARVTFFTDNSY
UniProt P35968, whole entry: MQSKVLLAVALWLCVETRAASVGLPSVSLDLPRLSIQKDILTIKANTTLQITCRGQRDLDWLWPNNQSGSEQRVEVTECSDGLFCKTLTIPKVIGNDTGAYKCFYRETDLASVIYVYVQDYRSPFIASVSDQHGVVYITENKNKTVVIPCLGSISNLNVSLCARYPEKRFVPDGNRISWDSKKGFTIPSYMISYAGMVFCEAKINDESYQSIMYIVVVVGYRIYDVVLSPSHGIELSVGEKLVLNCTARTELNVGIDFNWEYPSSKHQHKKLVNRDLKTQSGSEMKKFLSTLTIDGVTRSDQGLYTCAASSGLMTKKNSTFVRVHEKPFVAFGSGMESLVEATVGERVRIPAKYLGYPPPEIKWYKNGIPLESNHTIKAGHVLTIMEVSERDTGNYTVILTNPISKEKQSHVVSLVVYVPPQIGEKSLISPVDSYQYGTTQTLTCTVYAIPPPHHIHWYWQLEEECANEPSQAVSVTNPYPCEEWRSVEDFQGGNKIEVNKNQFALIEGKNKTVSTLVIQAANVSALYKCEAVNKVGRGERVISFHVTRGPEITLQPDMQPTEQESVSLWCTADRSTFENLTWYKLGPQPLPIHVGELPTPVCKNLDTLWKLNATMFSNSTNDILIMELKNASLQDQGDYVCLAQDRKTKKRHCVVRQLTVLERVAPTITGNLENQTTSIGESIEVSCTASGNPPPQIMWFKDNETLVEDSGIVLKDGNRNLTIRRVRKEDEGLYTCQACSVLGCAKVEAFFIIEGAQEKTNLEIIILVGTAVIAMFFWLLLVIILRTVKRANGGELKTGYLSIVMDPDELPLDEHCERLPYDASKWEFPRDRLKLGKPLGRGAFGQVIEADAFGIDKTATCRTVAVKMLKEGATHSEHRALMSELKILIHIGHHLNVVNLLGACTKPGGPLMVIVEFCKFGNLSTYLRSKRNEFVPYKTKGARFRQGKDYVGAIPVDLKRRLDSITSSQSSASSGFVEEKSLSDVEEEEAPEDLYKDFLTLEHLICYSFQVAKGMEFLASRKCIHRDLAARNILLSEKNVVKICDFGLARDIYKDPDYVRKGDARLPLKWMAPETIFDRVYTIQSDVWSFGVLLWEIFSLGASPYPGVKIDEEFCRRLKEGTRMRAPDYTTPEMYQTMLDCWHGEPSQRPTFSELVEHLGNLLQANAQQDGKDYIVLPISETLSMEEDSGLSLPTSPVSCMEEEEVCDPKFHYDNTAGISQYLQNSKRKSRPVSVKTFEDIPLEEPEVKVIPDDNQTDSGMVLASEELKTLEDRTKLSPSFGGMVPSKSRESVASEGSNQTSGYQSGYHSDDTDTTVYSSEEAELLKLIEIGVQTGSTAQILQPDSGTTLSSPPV

Key:
[1] = molecular target: T1, Vascular endothelial growth factor receptor 1 (Homo sapiens, UniProt P17948); conditions: MDA-MB-231, dose 25-50 mg/kg, route po, time 14.0 day
[2] = molecular target: T2, Vascular endothelial growth factor receptor 3 (Homo sapiens, UniProt P35916); conditions: MDA-MB-231, dose 25-50 mg/kg, route po, time 14.0 day
[3] = molecular target: T1, Vascular endothelial growth factor receptor 1; conditions: MDA-MB-231, dose 25-50 mg/kg, route po, time 14.0 day; remark: listed apart in the source
[4] = molecular target: T2, Vascular endothelial growth factor receptor 3; conditions: MDA-MB-231, dose 25-50 mg/kg, route po, time 14.0 day; remark: listed apart in the source
MDA-MB-231 [5] = test: Induction of cell cycle arrest at S phase in human MDA-MB-231 cells at 4 uM by Annexin-V-FLUOS staining based flow cytometry; assay type: functional
MCF7 [6] = test: Induction of cell cycle arrest at S phase in human MCF7 cells at 4 uM by Annexin-V-FLUOS staining based flow cytometry; assay type: functional
MDA-MB-231 [7] = test: Induction of cell cycle arrest at G2/M phase in human MDA-MB-231 cells at 4 uM by Annexin-V-FLUOS staining based flow cytometry; assay type: functional
MCF7 [8] = test: Induction of cell cycle arrest at G2/M phase in human MCF7 cells at 4 uM by Annexin-V-FLUOS staining based flow cytometry; assay type: functional
MDA-MB-231 [9] = test: Antimigratory activity in human MDA-MB-231 cells assessed as upregulation of E-cadherin level at 4 uM by DAPI staining based immunofluorescence analysis; assay type: functional, cell-based
MCF7 [10] = test: Antimigratory activity in human MCF7 cells assessed as upregulation of E-cadherin level at 4 uM by DAPI staining based immunofluorescence analysis; assay type: functional, cell-based
MDA-MB-231 [11] = test: Antimigratory activity in human MDA-MB-231 cells assessed as downregulation of MMP-2 level at 4 uM by DAPI staining based immunofluorescence analysis; assay type: functional, cell-based
MCF7 [12] = test: Antimigratory activity in human MCF7 cells assessed as downregulation of MMP-2 level at 4 uM by DAPI staining based immunofluorescence analysis; assay type: functional, cell-based
MDA-MB-231 [13] = test: Antimigratory activity in human MDA-MB-231 cells assessed as upregulation of E-cadherin level at 4 uM incubated for 2 days by immunoblot analysis; assay type: functional, cell-based; conditions: time 2.0 day
MCF7 [14] = test: Antimigratory activity in human MCF7 cells assessed as upregulation of E-cadherin level at 4 uM incubated for 2 days by immunoblot analysis; assay type: functional, cell-based; conditions: time 2.0 day
MDA-MB-231 [15] = test: Antimigratory activity in human MDA-MB-231 cells assessed as downregulation of MMP-2 level at 4 uM incubated for 2 days by immunoblot analysis; assay type: functional, cell-based; conditions: time 2.0 day
MCF7 [16] = test: Antimigratory activity in human MCF7 cells assessed as downregulation of MMP-2 level at 4 uM incubated for 2 days by immunoblot analysis; assay type: functional, cell-based; conditions: time 2.0 day
MDA-MB-231 [17] = test: Induction of DNA damage in human MDA-MB-231 cells assessed as increase in gamma-H2AX level at 4 uM incubated for 48 hrs by DAPI staining based immunofluorescence analysis; assay type: functional, cell-based
MCF7 [18] = test: Induction of DNA damage in human MCF7 cells assessed as increase in gamma-H2AX level at 4 uM incubated for 48 hrs by DAPI staining based immunofluorescence analysis; assay type: functional, cell-based
MDA-MB-231 [19] = test: Induction of HR DNA repair in human MDA-MB-231 cells assessed as decrease in RAD51 level at 4 uM incubated for 48 hrs by DAPI staining based immunofluorescence analysis; assay type: functional, cell-based
MCF7 [20] = test: Induction of HR DNA repair in human MCF7 cells assessed as decrease in RAD51 level at 4 uM incubated for 48 hrs by DAPI staining based immunofluorescence analysis; assay type: functional, cell-based
MDA-MB-231 [21] = test: Induction of HR DNA repair in human MDA-MB-231 cells xenografted in BALB/c nude mouse assessed as decrease in BRCA1 level at 50 mg/kg, po for 14 days in presence of 1:1 of compound:Pazopanib by H and E staining based IHC analysis; assay type: functional, organism-based; conditions: time 14.0 day
[22] = molecular target: T1, Vascular endothelial growth factor receptor 1; conditions: MDA-MB-231, dose 50.0 mg/kg, route po, time 14.0 day
[23] = molecular target: T3, Vascular endothelial growth factor receptor 2 (Homo sapiens, UniProt P35968); conditions: MDA-MB-231, dose 50.0 mg/kg, route po, time 14.0 day
[24] = molecular target: T2, Vascular endothelial growth factor receptor 3; conditions: MDA-MB-231, dose 50.0 mg/kg, route po, time 14.0 day
[25] = molecular target: T1, Vascular endothelial growth factor receptor 1; conditions: MDA-MB-231, dose 25-50 mg/kg, route po, time 14.0 day; remark: listed apart in the source
[26] = molecular target: T3, Vascular endothelial growth factor receptor 2; conditions: MDA-MB-231, dose 25-50 mg/kg, route po, time 14.0 day
[27] = molecular target: T2, Vascular endothelial growth factor receptor 3; conditions: MDA-MB-231, dose 25-50 mg/kg, route po, time 14.0 day; remark: listed apart in the source

Cc1ccc(Nc2nccc(N(C)c3ccc4c(C)n(C)nc4c3)n2)cc1-c1nc2c(C(N)=O)cccc2[nH]1
active: inhibition [1] | inhibition [2] | inhibition [3] | inhibition [4]

O=C(c1cc(Cc2n[nH]c(=O)c3ccccc23)ccc1F)N1CCN(C(=O)C2CC2)CC1 [OLAPARIB]
active: Activity (MDA-MB-231 [5]) | Activity (MCF7 [6]) | Activity (MDA-MB-231 [7]) | Activity (MCF7 [8]) | Activity (MDA-MB-231 [9]) | Activity (MCF7 [10]) | Activity (MDA-MB-231 [11]) | Activity (MCF7 [12]) | Activity (MDA-MB-231 [13]) | Activity (MCF7 [14]) | Activity (MDA-MB-231 [15]) | Activity (MCF7 [16]) | Activity (MDA-MB-231 [17]) | Activity (MCF7 [18]) | Activity (MDA-MB-231 [19]) | Activity (MCF7 [20]) | Activity (MDA-MB-231 [21]) | inhibition [22] | inhibition [23] | inhibition [24] | inhibition [25] | inhibition [26] | inhibition [27]

Calls of active or inactive are those of the source.
